The record followed here is patent publication US20230009626A1 (ICHNOS SCIENCES S.A., priority 2018, published 2023).

By UniProt entry, the sequences of proteins in these tests, tags left out.
UniProt Q92918, whole entry: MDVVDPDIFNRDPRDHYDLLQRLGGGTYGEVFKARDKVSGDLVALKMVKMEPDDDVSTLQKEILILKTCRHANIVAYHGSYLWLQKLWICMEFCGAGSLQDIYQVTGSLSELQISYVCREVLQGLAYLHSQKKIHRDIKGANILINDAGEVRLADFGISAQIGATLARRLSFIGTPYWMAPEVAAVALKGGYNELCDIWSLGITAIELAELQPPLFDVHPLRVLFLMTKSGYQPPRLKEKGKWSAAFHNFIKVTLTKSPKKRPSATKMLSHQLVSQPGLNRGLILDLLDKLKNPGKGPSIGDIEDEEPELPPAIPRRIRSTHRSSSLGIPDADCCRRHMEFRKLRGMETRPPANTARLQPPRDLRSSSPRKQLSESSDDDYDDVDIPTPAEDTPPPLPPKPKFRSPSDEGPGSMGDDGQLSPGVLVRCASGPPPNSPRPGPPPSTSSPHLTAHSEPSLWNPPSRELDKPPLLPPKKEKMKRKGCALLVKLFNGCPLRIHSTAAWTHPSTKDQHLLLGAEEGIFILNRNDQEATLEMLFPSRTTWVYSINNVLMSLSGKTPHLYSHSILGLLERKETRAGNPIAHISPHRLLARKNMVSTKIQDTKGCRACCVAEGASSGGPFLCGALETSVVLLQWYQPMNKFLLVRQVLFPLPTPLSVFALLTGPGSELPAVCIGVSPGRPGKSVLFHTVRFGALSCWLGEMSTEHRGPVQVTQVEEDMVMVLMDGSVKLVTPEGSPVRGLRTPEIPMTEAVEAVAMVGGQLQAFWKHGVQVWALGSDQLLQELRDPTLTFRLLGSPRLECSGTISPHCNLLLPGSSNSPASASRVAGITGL

For the assay, the target named is HPK1 (MAP4K1) (Homo sapiens, UniProt Q92918). Nature of the assay: FRET Assay for HPK1 (MAP4K1): one step binding assay, displacement of labeled tracer. The source says: FRET Assay for HPK1 (MAP4K1):
This is a one step binding assay based on the binding and displacement of the labeled tracer, where compound addition is followed by addition of the anti-GST tagged europium (Eu) as the donor and Alexa Fluor-labeled tracer as the acceptor. Simultaneous binding of both the tracer and GST-antibody to the kinase domain of HPK1 results in a high degree of FRET (fluorescence resonance energy transfer) from the anti-GST tagged europium (Eu) fluorophore to the Alexa Fluor® 647 fluorophore on the kinase tracer and this signal is reduced in presence of the inhibitor that can be measured.
Test compounds or reference compounds such as Sunitinib (Sigma) were dissolved in dimethylsulfoxide (DMSO) to prepare 10.0 mM stock solutions and diluted to the desired concentration. The final concentration of DMSO in the reaction was 3% (v/v). […] After shaking for 5 min the reaction was further incubated for 1 hour at room temperature and this was kept at 4° C. and read on ARTEMIS reader as per the kit instructions (Thermo). The inhibition of test compound was calculated based on the FRET ratio of 665/620. The activity was calculated as percent of control reaction. IC50 values were calculated from dose response curve by nonlinear regression analysis using GraphPad Prism software. […]

In general, % Inhibition refers to the change of the read-out against control, counted positive when it falls. What is called IC50 is the concentration at which inhibition is half-maximal.

As for `C/C(Nc1ccn(C(C)(C)C#N)n1)=C1/C(=O)Nc2cnc(-c3cnccc3C)cc21`, the “% Inhibition at 1 μM” value (1 μM compound, FRET ratio 665/620, percent of control) was 78.55%. The half-maximal inhibitory concentration (IC50) (read-out: IC50 value, dose response curve, nonlinear regression) was less than 0.05 µM.
